Values of other authors as cited in US20040137514A1, “Use of antibodies against specific mhc-peptide complexes” (priority 2000, published 2004).

System: T cells of RA patients
Details: cited from earlier work

Structure (SMILES) | recognition by T cells of RA patients
CC[C@H](C)[C@H](NC(=O)[C@H](CCCCN)NC(=O)[C@H](CO)NC(=O)[C@H](Cc1ccccc1)NC(=O)[C@H](CCCNC(=N)N)NC(=O)[C@H](CCC(N)=O)NC(=O)[C@@H](N)CO)C(=O)N[C@@H](C)C(=O)N[C@@H](CO)C(=O)N[C@@H](CC(N)=O)C(=O)N[C@H](C(=O)N[C@@H](CCC(N)=O)C(=O)N[C@@H](CO)C(=O)N[C@@H](CCCNC(=N)N)C(=O)O)[C@@H](C)O [HC gp-39^103-116] | recognized
CC(C)C[C@H](NC(=O)[C@@H](NC(=O)[C@H](Cc1ccccc1)NC(=O)[C@H](CO)NC(=O)[C@H](CCCNC(=N)N)NC(=O)CNC(=O)[C@H](Cc1ccccc1)NC(=O)[C@@H](NC(=O)[C@@H]1CCCN1)[C@@H](C)O)[C@@H](C)O)C(=O)N[C@@H](C)C(=O)N[C@@H](CO)C(=O)N[C@@H](CO)C(=O)N[C@@H](CCC(=O)O)C(=O)O [HC gp-39^259-271] | recognized
